For the assay, the target named is T1, ETB (h) (Homo sapiens, UniProt P24530).
T1 sequence (P24530 27-442): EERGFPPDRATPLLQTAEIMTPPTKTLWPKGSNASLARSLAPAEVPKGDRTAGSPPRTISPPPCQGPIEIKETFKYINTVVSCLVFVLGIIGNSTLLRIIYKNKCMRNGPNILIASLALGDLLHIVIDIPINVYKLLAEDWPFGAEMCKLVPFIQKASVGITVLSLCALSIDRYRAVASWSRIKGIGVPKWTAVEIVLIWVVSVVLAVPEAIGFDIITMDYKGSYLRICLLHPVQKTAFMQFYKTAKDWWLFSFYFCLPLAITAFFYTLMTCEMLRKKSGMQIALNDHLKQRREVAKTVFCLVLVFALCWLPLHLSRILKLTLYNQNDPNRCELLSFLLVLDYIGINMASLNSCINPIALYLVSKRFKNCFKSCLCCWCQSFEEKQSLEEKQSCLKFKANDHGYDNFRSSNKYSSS
In words: Radioligand binding, Cerep 825-2h. The conditions noted are these: reference compound.

With endothelin-3, the IC50 was determined as 120 pM.

These data come from US9422289B2, “Use of pteridine derivatives for the treatment of increased intracranial pressure, secondary ischemia, and disorders associated with an increased level of cytotoxic reactive oxygen species” (VASOPHARM GMBH, priority 2003, dated 2016).
